# This is a selection; strong and weak results do not stand in their true shares. Results filed as inconclusive are left out. Calls of active or inactive are those of the source. Unless noted, calls follow the shape of the full dose curve.
# By UniProt entry, the sequences of proteins in these tests, tags left out.
# UniProt P30968, whole entry: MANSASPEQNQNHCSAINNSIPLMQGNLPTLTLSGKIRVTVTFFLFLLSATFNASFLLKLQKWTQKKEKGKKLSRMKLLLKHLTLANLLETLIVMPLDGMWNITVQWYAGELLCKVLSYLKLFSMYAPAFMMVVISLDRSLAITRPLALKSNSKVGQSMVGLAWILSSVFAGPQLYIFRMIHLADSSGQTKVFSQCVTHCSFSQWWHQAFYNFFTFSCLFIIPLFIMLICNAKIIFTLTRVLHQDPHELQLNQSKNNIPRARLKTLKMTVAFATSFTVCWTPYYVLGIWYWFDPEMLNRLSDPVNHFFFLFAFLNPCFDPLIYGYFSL
# UniProt Q969F8, whole entry: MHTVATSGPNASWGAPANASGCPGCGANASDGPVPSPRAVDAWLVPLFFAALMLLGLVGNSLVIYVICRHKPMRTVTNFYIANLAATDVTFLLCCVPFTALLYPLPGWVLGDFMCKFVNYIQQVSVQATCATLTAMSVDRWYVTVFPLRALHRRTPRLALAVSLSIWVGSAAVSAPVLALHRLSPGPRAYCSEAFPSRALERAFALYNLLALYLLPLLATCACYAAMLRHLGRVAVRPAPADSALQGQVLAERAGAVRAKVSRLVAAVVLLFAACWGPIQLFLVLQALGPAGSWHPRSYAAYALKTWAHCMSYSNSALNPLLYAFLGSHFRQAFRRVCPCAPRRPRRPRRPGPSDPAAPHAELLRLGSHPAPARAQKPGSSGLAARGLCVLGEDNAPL
# UniProt P28223, whole entry: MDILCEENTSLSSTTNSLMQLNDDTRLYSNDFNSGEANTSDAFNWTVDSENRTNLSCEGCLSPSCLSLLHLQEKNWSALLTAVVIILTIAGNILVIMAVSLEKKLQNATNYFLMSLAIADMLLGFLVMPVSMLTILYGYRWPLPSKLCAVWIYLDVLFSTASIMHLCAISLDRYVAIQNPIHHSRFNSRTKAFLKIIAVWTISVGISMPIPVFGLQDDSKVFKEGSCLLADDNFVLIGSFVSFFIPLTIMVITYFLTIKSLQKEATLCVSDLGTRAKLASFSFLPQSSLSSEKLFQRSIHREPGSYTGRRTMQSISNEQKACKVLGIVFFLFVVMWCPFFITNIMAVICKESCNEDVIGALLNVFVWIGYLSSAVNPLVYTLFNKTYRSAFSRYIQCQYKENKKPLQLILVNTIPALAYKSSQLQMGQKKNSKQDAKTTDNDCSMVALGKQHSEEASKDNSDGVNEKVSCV
# UniProt P11229, whole entry: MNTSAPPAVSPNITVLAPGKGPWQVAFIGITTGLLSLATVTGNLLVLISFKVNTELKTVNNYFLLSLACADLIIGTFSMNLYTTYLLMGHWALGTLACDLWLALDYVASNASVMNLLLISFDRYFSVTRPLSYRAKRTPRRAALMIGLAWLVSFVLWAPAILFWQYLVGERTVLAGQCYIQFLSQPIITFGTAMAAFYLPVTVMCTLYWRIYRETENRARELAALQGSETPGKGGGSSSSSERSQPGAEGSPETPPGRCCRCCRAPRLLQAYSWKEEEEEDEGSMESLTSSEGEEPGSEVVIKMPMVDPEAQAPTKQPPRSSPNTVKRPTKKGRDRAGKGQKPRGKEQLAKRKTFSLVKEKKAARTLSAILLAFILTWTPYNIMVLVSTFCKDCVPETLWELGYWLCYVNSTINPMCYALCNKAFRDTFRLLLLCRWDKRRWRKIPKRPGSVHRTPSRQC
# UniProt P14416, whole entry: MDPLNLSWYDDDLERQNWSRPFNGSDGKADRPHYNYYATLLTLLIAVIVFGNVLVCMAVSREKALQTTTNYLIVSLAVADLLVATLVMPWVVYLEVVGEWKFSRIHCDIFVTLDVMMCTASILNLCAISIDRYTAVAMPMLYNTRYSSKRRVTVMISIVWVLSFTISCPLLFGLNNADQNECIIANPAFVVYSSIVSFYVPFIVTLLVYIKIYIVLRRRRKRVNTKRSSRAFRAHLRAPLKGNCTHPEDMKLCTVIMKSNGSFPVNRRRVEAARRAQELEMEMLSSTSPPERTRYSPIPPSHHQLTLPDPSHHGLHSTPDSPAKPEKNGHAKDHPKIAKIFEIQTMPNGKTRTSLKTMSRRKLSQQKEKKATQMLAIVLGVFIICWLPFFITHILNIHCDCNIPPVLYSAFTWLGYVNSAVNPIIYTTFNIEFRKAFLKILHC
# UniProt P07550, whole entry: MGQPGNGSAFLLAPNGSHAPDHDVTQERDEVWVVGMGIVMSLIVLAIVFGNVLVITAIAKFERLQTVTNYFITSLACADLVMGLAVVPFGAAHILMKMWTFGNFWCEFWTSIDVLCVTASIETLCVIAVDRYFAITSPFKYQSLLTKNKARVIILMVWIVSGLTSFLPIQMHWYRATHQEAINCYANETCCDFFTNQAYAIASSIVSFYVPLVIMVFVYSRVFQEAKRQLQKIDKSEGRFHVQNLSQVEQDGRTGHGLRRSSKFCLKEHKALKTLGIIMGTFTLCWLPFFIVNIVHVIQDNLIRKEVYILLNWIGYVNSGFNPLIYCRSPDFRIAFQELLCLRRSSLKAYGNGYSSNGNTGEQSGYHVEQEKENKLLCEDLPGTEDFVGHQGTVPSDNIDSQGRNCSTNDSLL
# Experiments:
# [1] = Nuclear factor erythroid 2-related factor 2/antioxidant responsive element (Nrf2/ARE) small molecule agonists: luciferase reporter gene qHTS assay in human keratinocytes (AID 1919969); details: KeratinoSens HaCaT ARE-luciferase, luminescence, 24 h; also: potency is read from the fitted curve at half-maximal effect; nearly all actives have a fitted effect of over 35% in size
# From the text: National Center for Advancing Translational Sciences [NCATS]
# Division of Preclinical Innovation [DPI]
# U.S. Environmental Protection Agency [EPA]
# National Institutes of Environmental Health Sciences [NIEHS]
# National Toxicology Program [NTP]
# U.S. Food and Drug Administration [FDA]
# Oxidative stress has been implicated in the pathogenesis of a variety of diseases ranging from cancer to neurodegeneration. The antioxidant response element (ARE) signaling pathway plays an important role in the amelioration of oxidative stress. The KeratinoSens (Givaudan, Switzerland) is an in vitro test method which quantifies luciferase induction as a measure of activation of Keap1-Nrf2-antioxidationt/electrophile response element (ARE) dependant pathway in HaCaT human keratinocytes stably transfected with a selectable plasmid. The KeratinoSens assay is a cell-based assay with a reporter cell line to detect potential skin sensitizers by their ability to induce the Nrf2/ARE-response. The activation of the report gene under culture conditions can be detected by ONE-Glo Luciferase Assay System (Promega, Madison, WI). This cell line has been used to screen the Tox21 10K compound library to identify agonists that induce oxidative stress. […]
# HaCaT derived cell line KeratinoSens were dispensed at 1,500 cells/5uL/well in 1536-well white wall/solid bottom plates using a Multidrop Combi (ThermoFisher Scientific, Waltham, MA) dispenser. […] The plates were incubated at 37 C/5% CO2 for 23 h, followed by addition of 1uL/well of CellTiter-Fluor reagent into the assay plates using a Flying Reagent Dispenser (Aurora Discovery, San Diego, CA) for cell viability readout that measures cytotoxicity. After 1 h incubation at 37 C/5% CO2 the fluorescence intensity was measured using a ViewLux (PerkinElmer, Shelton, CT) plate reader. […] After the plates were incubated at room temperature for 30 min, the luminescence intensity in the assay plates was measured using ViewLux plate reader.
# [2] = molecular target: Gonadotropin-releasing hormone receptor (Homo sapiens) (UniProt P30968); experiment: Human gonadotropin-releasing hormone receptor (GnRHR) small molecule agonists, calcium flux assay in GnRHR-HEK293 cells (AID 1920063); details: calcium flux fluorescence, agonist mode; also: potency is read from the fitted curve at half-maximal effect; nearly all actives have a fitted effect of over 35% in size
# In short: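 GnRHR-HEK293, 1500 cells/well, 18 h 37 C/5% CO2; Ca dye 1 h 37 C; cpd pinned (DMSO), agonist mode; kinetic FL 480/540, 3 min, 1 s reads; 15 conc, n=3.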
# [3] = molecular target: KiSS-1 receptor (Homo sapiens) (UniProt Q969F8); experiment: Human kisspeptin (KISS1R) small molecule agonists, calcium flux assay in KISS1R-HEK293 cells (AID 1920064; active = well fitted curve in the direction sought with a large enough effect in the repeat runs; an effect the other way counts as inactive or inconclusive; also: potency is read from the fitted curve at half-maximal effect); details: KISS1R-HEK293, calcium flux fluorescence, agonist
# In short: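 Stable human KISS1R HEK293 line; 18 h plating, 37 C/5% CO2; calcium dye 1 h 37 C; compound pin transfer; kinetic fluorescence Ex/Em 480/540, 3 min.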
# [4] = molecular target: 5-hydroxytryptamine receptor 2A (Homo sapiens) (UniProt P28223); experiment: 5-hydroxytryptamine receptor 2A (HTR2A) small molecule agonists, cell-based qHTS assay (AID 1963587); details: HTR2A-CHO cells, calcium flux fluorescence, agonist mode; also: potency is read from the fitted curve at half-maximal effect; nearly all actives have a fitted effect of over 30% in size
# In short: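 CHO cells stably expressing human HTR2A, plated 18 h, loaded with calcium dye 1 h at 37 C. Agonist mode: compounds added and intracellular calcium fluorescence recorded kinetically for 2 min at 1 sec intervals.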
# [5] = cAMP Responsive Elements (CRE) small molecule antagonists, cell-based qHTS assay (AID 1963591; active = well fitted inhibition curve with a large enough effect in the signal ratio in the repeat runs, not every such curve was filed as active; the % refers to the signal ratio; also: % is scaled to controls: 0 for no effect and ±100 for the full control effect); details: CRE-bla HEK293T, beta-lactamase FRET ratio; at 92.4 µM (top of the series)
# In short: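 Beta-lactamase reporter read by FRET substrate (LiveBLAzer B/G) after 2 h at room temperature. CRE-bla HEK293T cells had received compound plus 0.25 uM (final) NKH477 for 3 h at 37 °C.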
# [6] = Nuclear factor erythroid 2-related factor 2/antioxidant responsive element (Nrf2/ARE) small molecule agonists: qHTS cell viability counter screen in human keratinocytes (AID 1919968; active = well fitted curve in the direction sought with a large enough effect in the repeat runs; an effect the other way counts as inactive or inconclusive; also: nearly all actives have a fitted effect of over 55% in size; also: potency is read from the fitted curve at half-maximal effect); details: KeratinoSens HaCaT ARE cells viability, CellTiter-Fluor, 24 h; series mostly up to 92.4 µM
# In short: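 HaCaT ARE reporter line, 1,500 cells/well; 5 h settle, 37 C/5% CO2; cpd in DMSO pinned; 23 h exposure; CellTiter-Fluor, 1 h; fluorescence.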
# [7] = p53 small molecule agonists, cell-based qHTS assay with human liver microsomes: qHTS cell viability counter screen (AID 1963579); details: p53RE-bla HCT-116 viability, ATP luminescence, 16 h, HLM; also: potency is read from the fitted curve at half-maximal effect; nearly all actives have a fitted effect of over 45% in size
# In short: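 Cytotoxicity counter screen: p53RE-bla, 4,000 cells/well; 5 h settle, 37 C/5% CO2; cpd + HLM 0.5 mg/mL + NADPH 0.5 mg/mL (final); 16 h, 37 C; CellTiter-Glo, 30 min RT, luminescence.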
# [8] = molecular target: Muscarinic acetylcholine receptor M1 (Homo sapiens) (UniProt P11229); experiment: Cholinergic receptor muscarinic 1 (CHRM1) small molecule antagonists, cell-based qHTS assay (AID 1963588); details: CHRM1-CHO antagonist mode, calcium flux fluorescence; at 28.3 µM (top of the series); also: % is scaled to controls: 0 for no effect and ±100 for the full control effect; nearly all actives have a fitted effect of over 40% in size
# In short: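 CHRM1-CHO calcium-flux assay, antagonist mode. Cells were seeded 18 h, dye-loaded 1 h at 37 C and given compound for 5 min at RT, then acetylcholine was added at 50nM. FDSS fluorescence was read 3 min; 15 concentrations, three runs.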
# [9] = molecular target: Muscarinic acetylcholine receptor M1 (Homo sapiens) (UniProt P11229); experiment: Cholinergic receptor muscarinic 1 (CHRM1) small molecule agonists, cell-based qHTS assay (AID 1963589); details: CHRM1-CHO cells, agonist mode, calcium flux fluorescence; series mostly up to 35.3 µM; also: nearly all actives have a fitted effect of over 35% in size; also: potency is read from the fitted curve at half-maximal effect
# In short: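 Human M1 in stable CHO line; 18 h plating, 1 h dye load 37 C; cpd added (agonist mode); Ca2+ fluorescence kinetic read, 1 s intervals; 15 conc, 3 runs.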
# [10] = molecular target: D(2) dopamine receptor (Homo sapiens) (UniProt P14416); experiment: Dopamine D2 receptor (DRD2) small molecule antagonists, cell-based qHTS assay (AID 1963595; active = well fitted inhibition curve with a large enough effect in the signal ratio in the repeat runs, with a control signal flat; the % refers to the signal ratio; also: potency is read from the fitted curve at half-maximal effect); details: HEK293-DRD2 cAMP HTRF antagonist mode
# In short: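 HTRF cAMP read-out at 665 and 620 nm emission (340 nm excitation). Antagonist mode: compounds were tested against 12 nM quinpirole in DRD2-HEK293 cells, with 200 nM NKH477 raising cAMP and 0.1 mM Ro20-1724 blocking its breakdown.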
# [11] = molecular target: Beta-2 adrenergic receptor (Homo sapiens) (UniProt P07550); experiment: Adrenergic beta2 receptor (ADRB2) small molecule antagonists, cell-based qHTS assay (AID 1963592); details: CHO-ADRB2 cells, isoproterenol-stimulated cAMP HTRF ratio, 0.5 h; also: potency is read from the fitted curve at half-maximal effect; nearly all actives have a fitted effect of over 50% in size
# In short: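 Cells (CHO, stable ADRB2 overexpression) incubated 18-20hr at 37C; compounds added from DMSO; agonist mix (1nM isoproterenol, 100uM IBMX, 25uM Ro-20-1724) added; 0.5hr RT; d2-cAMP and anti-cAMP-cryptate added; 1hr RT; 665/615 nm read.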
# [12] = p53 small molecule agonists, cell-based qHTS assay with rat liver microsomes: qHTS cell viability counter screen (AID 1963580); details: p53RE-bla HCT-116 + rat microsomes, ATP viability, 16 h; series mostly up to 66 µM; also: nearly all actives have a fitted effect of over 45% in size; also: potency is read from the fitted curve at half-maximal effect
# In short: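 p53RE-bla HCT-116 cells were exposed 16 h at 37 C to compounds with rat liver microsomes (0.5 mg/mL) and NADPH (0.5 mg/mL). Viability was measured in the same wells as ATP content by CellTiter-Glo luminescence.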
smiles,measurement,setting,value
Cc1ccc([N+](=O)[O-])c([N+](=O)[O-])c1,Potency,[1],active: 27.9 µM
same,Potency,[2],active: 15.5 µM
same,Potency,[3],active: 12.3 µM
same,Potency,[4],active: 12.3 µM
O=C(Cl)OCCOC(=O)Cl,"activity change, negative = inhibition",[5],inactive: -1.76%
CCCCCCCCCCCCCC[P+](CCCCCC)(CCCCCC)CCCCCC.F[P-](F)(F)(F)(F)F,Potency,[6],active: 10.8 µM
same,Potency,[7],active: 16.2 µM
OCCSCCO,"activity, negative = inhibition",[8],inactive: 0.275%
Cc1cccc([N+](=O)[O-])c1[N+](=O)[O-],Potency,[9],inactive
N#CSc1ccc([N+](=O)[O-])cc1[N+](=O)[O-],Potency,[6],active: 13.7 µM
same,Potency,[7],active: 18.2 µM
same,Potency,[10],active: 17.2 µM
O=[As]c1ccccc1 (stereo not given),Potency,[11],active: 54.5 µM
same,Potency,[10],active: 1.22 µM
O=[N+]([O-])c1ccc([N+](=O)[O-])cc1,Potency,[1],active: 61.1 µM
CC(C)OP(C)(=O)OC(C)C,Potency,[6],inactive
same,Potency,[1],active: 54.5 µM
same,Potency,[12],inactive
O=C1C2CC=CCC2C(=O)N1SC(Cl)(Cl)C(Cl)Cl (stereo not given),Potency,[12],active: 22.9 µM
same,Potency,[9],active: 15.5 µM
